Earlier results as cited in article PMC7754455 (Journal of Clinical Pharmacology, 2020).

How the values were obtained:
[1] = preclinical findings; cited from earlier work
[2] = doses up to 30 mg, first week of daily administration, BET115521; cited from earlier work

In the case of `CCNC(=O)C[C@@H]1N=C(c2ccc(Cl)cc2)c2cc(OC)ccc2-n2c(C)nnc21` [Molibresib], the “preclinical embryofetal development and female fertility risk” value [1] is listed as “substantiated risk for adverse effects on embryofetal development and female fertility” and the tolerability in patients [2] is listed as “tolerated”.
